This is a sample that favours compounds with a hit; in the whole collection about 2.2% have one here.
PI4K2A block: blocks human PI4K2A kinase activity. Q9BTU6. activity change, negative = inhibition, % at 76.9 µM. 420,000 tested, 0.13% active. AID 1346378. purified PI4K2A, ADP-Glo luminescence, 1 h; active compounds read low; in the data active = activity change below about -50%; inconclusive = mostly about -30% to -49%;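 also: -100% = wells without enzyme as full effect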
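In this quantitative HTS, ADP production by PI4K2A was quantified luminescently after 1 h at ambient temperature; 100 microM adenosine served as plate-quality control.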
Nrf2 block: blocks Nrf2 signaling. Potency, µM (highest dose often 46 µM), for the others: at the top dose activity change, negative = inhibition, usual class: inhibitors. A549 ARE-Fluc reporter, luciferase luminescence, 18-24 h. 360,000 tested, 2.1% active. AID 504444; also: potency is read from the fitted curve at half-maximal effect; % is scaled to controls: 0 for no effect and ±100 for the full control effect; nearly all actives have a fitted effect of over 60% in size
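Reporter: ARE-Fluc in A549. Exposure: 18-24 h, 37 °C, 5% CO2, 5% FBS OPTI-MEM. Readouts: fluorescent cytotoxicity (CellTiter-Fluor), then luminescent Nrf2 signal after BugLite.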
GALK inh: galactokinase (human) inhibition | AID 1868 | Potency, µM (series often up to 57.5 µM), without a hit: top-dose activity change, negative = inhibition, hits mostly inhibitors | P51570 | Purified GALK, Kinase-Glo residual ATP luminescence | 270,000 tested, 0.007% active; also: potency is read from the fitted curve at half-maximal effect; % is scaled to controls: 0 for no effect and ±100 for the full control effect
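GALK at 5 nM final was combined with compound, 35 uM ATP and 100 uM galactose in HEPES pH8.0 with MgCl2 and DTT. The reaction ran one hour at room temperature before luminescent ATP detection.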
A549 viability: A549 cytotoxicity, counter-screen for Nrf2 inhibitors; A549 ARE-Fluc cells, CellTiter-Fluor viability, 18-24 h; Potency, µM (titrated, usually from 46 µM), inactives show at the top dose activity change, negative = cytotoxicity, most hits filed as inhibitors; 390,000 tested, 0.16% active; also: potency is read from the fitted curve at half-maximal effect; % is scaled to controls: 0 for no effect and ±100 for the full control effect
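A549 ARE_Fluc cells in 5% FBS OPTI-MEM were exposed to compounds in concentration-response for 18-24 h at 37 deg C. Viability was read by CellTiter-Fluor fluorescence (Ex 405/Em 525) after 30 min, before the luciferase read.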
Nrf2 ARE act: activates Nrf2 signaling; 410,000 tested, 0.31% active; AREc32 ARE-luciferase reporter (MCF7-derived line), luminescence, 24 h; Potency, µM (top dose mostly 46.1 µM), for the others: top-dose activation, most hits filed as activators; AID 624171; also: potency is read from the fitted curve at half-maximal effect; % of control where 0% means no effect; nearly all actives have a fitted effect of over 65% in size
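Quantitative high-throughput format: AREc32 reporter cells, 1000 per well, received compound by pin transfer and were incubated 24 hr at 37 deg C, 5% CO2, before Steady-Glo luminescence detection.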
miR-21 reporter: miR-21 reporter, rising signal | HeLa miR-21 FLuc reporter, luciferase, 48 h | Potency, µM (doses to about 38.3 µM), inactives show at the top dose reporter change, positive = more light | 340,000 tested, under 10 active | AID 2288; active = well fitted rising curve with a large enough effect; inconclusive = small, poorly fitted or top-dose-only effect; inactive = no such curve, though single readings can be large or run the other way;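 note: % of control where 0% means no effect; miR-21 action dims this reporter so a rising signal means less miR-21 action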
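HeLa cells stably expressing CMV-driven firefly luciferase with a downstream miR-21 binding sequence, endogenously expressing miR-21, were treated with titrations (up to about 40uM final) for 48 hours at 37 degree Celsius. Luciferase luminescence was read after lysis.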
* hit, by the source's call; ? = inconclusive; . = no result given. Unless noted, calls follow the shape of the dose curve; as a rule, active = well fitted curve in the direction sought with a large enough effect; inconclusive = small, poorly fitted or top-dose-only effect, or another doubt; inactive = no such curve, though single readings can be large; an effect the other way counts as inactive or inconclusive.

1) COC(=O)[C@]12C[C@H](CC(=O)N3CCCC3)C(=O)N(Cc3ccc(Cl)cc3Cl)C1=C[C@H](C(C)(C)C)O[C@@H]2C
2) CCc1nc(SCC(=O)N2CCCc3ccccc32)c2oc3ccccc3c2n1
3) O=C1c2ccccc2NC(c2ccc(Br)s2)N1O (stereo not drawn)
4) Fc1ccc(NC2CCC23CCC(c2ccccc2)CC3)cc1C(F)(F)F (stereo not drawn)
5) CCCCNC(=O)C1CCC(CNc2nc(=S)[nH]c3ccccc23)CC1 (stereo not drawn)
6) COc1ccc(N2CCN(CCCNC(=O)C3CCC(CNc4nc(=S)[nH]c5ccccc45)CC3)CC2)cc1 (stereo not drawn)
Compound,1,2,3,4,5,6
PI4K2A block,0,3,4,-2,-1,1
Nrf2 block,.,16µM*,18µM*,.,-12%,6.5µM*
GALK inh,.,0%,.,.,-2%,-1%
A549 viability,.,?,-17%,.,6%,?
Nrf2 ARE act,.,-1%,6%,.,-1%,0%
miR-21 reporter,.,17%,.,.,-2%,-3%

7) COc1ccc(CNC(=O)[C@H](C)N2C(=O)N3CCc4c([nH]c5ccccc45)[C@@]3(C)C2=O)cc1OC
8) Cc1ccc(CNC(=O)[C@H](C)N2C(=O)N3CCc4c([nH]c5ccccc45)[C@@]3(C)C2=O)cc1
9) CC(=O)N1CCCc2cc(S(=O)(=O)N3CCCC(C(=O)NCc4ccc(C)cc4)C3)ccc21 (stereo not drawn)
10) COc1ccc(S(=O)(=O)N2CCCC(C(=O)Nc3cccnc3)C2)cc1Cl (stereo not drawn)
11) COc1ccc(NC(=O)C2CCCN(S(=O)(=O)c3cccnc3)C2)cc1OC (stereo not drawn)
12) COc1ccc(NC(=O)C2CCCN(S(=O)(=O)c3ccc4c(c3)CCCN4C(C)=O)C2)cc1Cl (stereo not drawn)
Compound,7,8,9,10,11,12
PI4K2A block,3,3,4,5,6,-4
Nrf2 block,16µM*,-26%,5.8µM*,16µM*,-6%,16µM*
GALK inh,.,.,-3%,-4%,5%,0%
A549 viability,-2%,8%,-5%,-18%,1%,-4%
Nrf2 ARE act,1%,0%,2%,3%,0%,2%
miR-21 reporter,14%,12%,6%,22%,-1%,-2%

Brought forward from above: 3 compounds, followed by the next part.
10) COc1ccc(S(=O)(=O)N2CCCC(C(=O)Nc3cccnc3)C2)cc1Cl (stereo not drawn)
11) COc1ccc(NC(=O)C2CCCN(S(=O)(=O)c3cccnc3)C2)cc1OC (stereo not drawn)
12) COc1ccc(NC(=O)C2CCCN(S(=O)(=O)c3ccc4c(c3)CCCN4C(C)=O)C2)cc1Cl (stereo not drawn)
13) Cc1ccccc1Cn1cc(CN2[C@H](CC(C)C)COc3cc(Br)ccc3S2(=O)=O)nn1
14) Cc1cccc(-c2cccc3c4c([nH]c23)[C@@H]2C[C@H](N(C)C(=O)OCc3ccccc3)[C@H]([C@H](C)O)CN2CC4)c1
15) CC(C)c1ccc(NC(=O)C2CCN(S(=O)(=O)c3ccc(Br)s3)CC2)cc1
16) O=C(Nc1ccc(Cl)cc1)C1CCN(S(=O)(=O)c2ccc(Br)s2)CC1
17) O=S(=O)(NCC1CCCO1)c1ccc(-c2ccc(S(=O)(=O)NCC3CCCO3)cc2)cc1 (stereo not drawn)
18) Cc1ccc(S(=O)(=O)NCC2CCCO2)cc1 (stereo not drawn)
Compound,10,11,12,13,14,15,16,17,18
PI4K2A block,5,6,-4,-1,-3,-2,-3,-1,0
Nrf2 block,16µM*,-6%,16µM*,.,.,-28%,23µM*,1.3µM*,26%
GALK inh,-4%,5%,0%,.,.,.,.,-2%,1%
A549 viability,-18%,1%,-4%,.,.,-4%,-26%,2%,11%
Nrf2 ARE act,3%,0%,2%,.,.,0%,9%,1%,3%
miR-21 reporter,22%,-1%,-2%,.,.,9%,?,19%,2%

19) Cc1noc(C)c1-c1ccc2ncnc(NCc3ccc(-c4ccccc4)cc3)c2c1
20) c1cncc(CNc2ncnc3ccc(-c4ccc5c(c4)OCO5)cc23)c1
21) COc1cccc(-c2ccc3ncnc(NCc4ccc5c(c4)OCO5)c3c2)c1
22) COc1cccc(-c2ccc3ncnc(NCc4cc(C)cs4)c3c2)c1
23) c1nc(NCc2ccc3c(c2)OCO3)c2cc(-c3ccc4c(c3)OCCO4)ccc2n1
24) Cc1cccc(CNc2ncnc3ccc(-c4ccoc4)cc23)c1
Compound,19,20,21,22,23,24
PI4K2A block,.,-1,-7,2,-1,-2
Nrf2 block,12µM*,9%,16µM*,-23%,23µM*,18µM*
GALK inh,.,.,.,.,.,.
A549 viability,-12%,8%,-19%,0%,2%,-16%
Nrf2 ARE act,.,3%,0%,-3%,7%,-1%
miR-21 reporter,.,.,.,.,.,.
